The values that follow come from patent US7205403B2, “8-Heteroaryl xanthine adenosine A2B receptor antagonists” (King Pharmaceuticals Research and Development, Inc., priority 2002, dated 2007).

By UniProt entry, the sequences of proteins in these tests, tags left out.
UniProt P30542, whole entry: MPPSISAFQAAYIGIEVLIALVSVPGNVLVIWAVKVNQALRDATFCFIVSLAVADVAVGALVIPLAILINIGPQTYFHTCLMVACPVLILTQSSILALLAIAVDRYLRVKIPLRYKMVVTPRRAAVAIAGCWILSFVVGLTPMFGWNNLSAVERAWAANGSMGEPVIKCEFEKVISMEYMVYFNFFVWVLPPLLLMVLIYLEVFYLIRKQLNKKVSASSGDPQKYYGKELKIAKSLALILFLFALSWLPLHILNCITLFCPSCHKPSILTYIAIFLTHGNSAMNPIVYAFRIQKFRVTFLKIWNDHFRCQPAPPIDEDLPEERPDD

This experiment addresses human A1 adenosine receptor (Homo sapiens, UniProt P30542). Kind of experiment: [3H]DPCPX binding to human A1 receptors expressed in CHO cells. The settings on record: read-out: Ki, [3H]DPCPX binding to human A1 receptors expressed in CHO cells; geometric mean (95% confidence interval); >1000 = no appreciable binding.

As for `CCCn1c(=O)c2[nH]c(-c3cc(NC(=O)Cc4ccccc4)n(C)n3)nc2n(CCC)c1=O` [AS35], the Ki was found to be 0.055 µM.
